Data on 6 substances can be found in patent publication US6342504B1, “Aromatic heterocyclic derivatives as enzyme inhibitors” (priority 1994, dated 2002).

Sequences of proteins named here, by UniProt entry; tags and fusion partners are left off. Residues count along the entry.
UniProt P00747, 97-580: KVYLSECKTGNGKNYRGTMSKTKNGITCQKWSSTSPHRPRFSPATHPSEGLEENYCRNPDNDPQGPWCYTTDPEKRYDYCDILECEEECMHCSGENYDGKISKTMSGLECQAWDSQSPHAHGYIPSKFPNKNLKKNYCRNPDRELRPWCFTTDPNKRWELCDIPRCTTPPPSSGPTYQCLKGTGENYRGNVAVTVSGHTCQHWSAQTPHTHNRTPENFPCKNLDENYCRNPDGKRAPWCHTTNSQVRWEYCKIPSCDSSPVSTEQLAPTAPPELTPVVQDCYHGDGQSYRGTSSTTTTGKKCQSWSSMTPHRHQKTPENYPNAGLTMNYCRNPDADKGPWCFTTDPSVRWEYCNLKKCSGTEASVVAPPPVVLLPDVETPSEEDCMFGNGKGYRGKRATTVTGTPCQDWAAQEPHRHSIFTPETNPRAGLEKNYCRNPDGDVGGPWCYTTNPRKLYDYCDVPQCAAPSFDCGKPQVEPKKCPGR
UniProt P00747, 581-810: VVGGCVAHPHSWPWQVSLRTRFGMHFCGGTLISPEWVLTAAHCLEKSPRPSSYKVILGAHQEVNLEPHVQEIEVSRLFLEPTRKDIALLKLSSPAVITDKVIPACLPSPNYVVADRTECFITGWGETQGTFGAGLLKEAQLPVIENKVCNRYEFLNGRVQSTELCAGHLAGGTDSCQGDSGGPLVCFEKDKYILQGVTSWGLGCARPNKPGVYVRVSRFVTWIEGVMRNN
UniProt P00750, 36-562: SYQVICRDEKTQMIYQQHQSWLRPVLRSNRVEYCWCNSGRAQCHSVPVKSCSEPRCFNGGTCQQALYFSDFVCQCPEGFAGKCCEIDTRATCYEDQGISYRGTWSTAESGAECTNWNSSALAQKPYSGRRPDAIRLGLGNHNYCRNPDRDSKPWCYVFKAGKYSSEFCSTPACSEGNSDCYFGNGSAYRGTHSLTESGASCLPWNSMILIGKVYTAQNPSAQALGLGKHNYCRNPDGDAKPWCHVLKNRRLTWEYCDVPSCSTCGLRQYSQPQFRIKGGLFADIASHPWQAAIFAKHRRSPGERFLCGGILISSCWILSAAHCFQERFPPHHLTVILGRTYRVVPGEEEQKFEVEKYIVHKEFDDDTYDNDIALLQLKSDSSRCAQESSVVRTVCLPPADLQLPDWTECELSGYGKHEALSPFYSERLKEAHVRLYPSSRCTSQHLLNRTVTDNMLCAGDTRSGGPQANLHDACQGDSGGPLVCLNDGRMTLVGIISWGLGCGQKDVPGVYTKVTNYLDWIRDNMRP
UniProt P04070, 43-197: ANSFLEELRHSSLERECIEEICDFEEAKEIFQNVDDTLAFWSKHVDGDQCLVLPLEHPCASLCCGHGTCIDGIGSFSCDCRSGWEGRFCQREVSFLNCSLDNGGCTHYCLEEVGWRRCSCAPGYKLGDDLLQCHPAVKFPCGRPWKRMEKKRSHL
UniProt P04070, 212-461: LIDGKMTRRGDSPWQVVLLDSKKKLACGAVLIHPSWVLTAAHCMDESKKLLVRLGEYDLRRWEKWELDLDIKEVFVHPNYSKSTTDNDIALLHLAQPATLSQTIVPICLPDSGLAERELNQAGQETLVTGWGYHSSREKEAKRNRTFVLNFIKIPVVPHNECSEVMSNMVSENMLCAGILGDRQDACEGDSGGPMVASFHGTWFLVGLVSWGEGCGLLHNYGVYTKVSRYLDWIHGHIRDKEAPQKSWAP

Assay type in all cases: biochemical
Assay [1] concerns the target human plasmin (Homo sapiens, UniProt P00747). The following applies: 30 minute incubation; read-out: Plasmin IC50 (Table 3C). The protocol: (§1) The ability of compounds of the present invention to act as a selective inhibitor of thrombin catalytic activity was assessed by determining the concentration of compound which inhibited the activity of this enzyme by 50%, (IC50), and comparing this value to that determined for all or some of the following related serine proteases: recombinant tissue plasminogen activator (rt-PA), plasmin, activated protein C, chymotrypsin, factor Xa and trypsin.
(§2) The buffer used for all assays was HBSA (10 mM HEPES, pH 7.5, 150 mM sodium chloride, 0.1% bovine serum albumin).
(§3) The assay for IC50 determinations was conducted by combining in appropriate wells of a Corning microtiter plate, 50 microliters of HBSA, 50 microliters of the test compound at a specified concentration (covering a broad concentration range) diluted in HBSA (or HBSA alone for VO (uninhibited velocity) measurement), and 50 microliters of the enzyme diluted in HBSA. Following a 30 minute incubation at ambient temperature, 50 microliters of the substrate at the concentrations specified below were added to the wells, yielding a final total volume of 200 microliters. The initial velocity of chromogenic substrate hydrolysis was measured by the change in absorbance at 405 nm using a Thermo Max® Kinetic Microplate Reader over a 5 minute period in which less than 5% of the added substrate was utilized. The concentration of added inhibitor which caused a 50% decrease in the initial rate of hydrolysis was defined as the IC50 value.
Plasmin catalytic activity was determined using the chromogenic substrate, S-2366 [L-pyroglutomyl-L-prolyl-L-arginine-p-nitroaniline hydrochloride], which was obtained from Pharmacia-Upjohn. The substrate was made up in deionized water followed by dilution in HBSA prior to the assay in which the final concentration was 300 micromolar (about 2.5-times Km). Purified human plasmin was obtained from Enzyme Research Laboratories, Inc. The enzyme was diluted into HBSA prior to assay in which the final concentration was […].

Assay [2] has as its target T1, Human rt-PA (Activase) (Homo sapiens, UniProt P00750).
T1 construct: purchased Genentech Inc
The following applies: 30 minute incubation; read-out: rtPA IC50 (Table 3C). Here is the method: as §1, §2, §3
Recombinant Tissue Plasminogen Activator (rt-PA) Assay
rt-PA catalytic activity was determined using the substrate, Pefachrome t-PA (CH3SO2-D-hexahydrotyrosine-glycyl-L-arginine-p-nitroaniline, obtained from Pentapharm Ltd.). The substrate was made up in deionized water followed by dilution in HBSA prior to the assay in which the final concentration was 500 micromolar (about 3-times Km). Human rt-PA (Activase®) was obtained from Genentech Inc. The enzyme was reconstituted in deionized water and diluted into HBSA prior to the assay in which the final concentration was 1.0 nM.

The target of assay [3] is T2, human aPC (Homo sapiens, UniProt P04070).
T2 construct: purchased Hematologic Technologies, Inc
The following applies: 30 minute incubation; read-out: aPC IC50 (Table 3C). Here is the method: as §2
Following a 30 minute incubation at ambient temperature, 50 microliters of the substrate at the concentrations specified below were added to the wells, yielding a final total volume of 200 microliters. The initial velocity of chromogenic substrate hydrolysis was measured by the change in absorbance at 405 nm using a Thermo Max® Kinetic Microplate Reader over a 5 minute period in which less than 5% of the added substrate was utilized.
Activated Protein C (aPC) Assay
aPC catalytic activity was determined using the chromogenic substrate, Pefachrome PC (delta-carbobenzloxy-D-lysine-L-prolyl-L-arginine-p-nitroaniline dihydrochloride), obtained from Pentapharm Ltd.). […] Purified human aPC was obtained from Hematologic Technologies, Inc. The enzyme was diluted into HBSA prior to assay in which the final concentration was 1.0 nM.

For “[2,3-methylenedioxy-benzene)sulfonylamino-2-oxo-1,2-dihydropyridyl]acetyl-L-argininal [Compound 152D]”, in assay [1], the IC50 is more than 2.5 µM.

As for “[5-(1,3-benzodioxole)sulfonylamino-2-oxo-1,2-dihydropyridyl]acetyl-L-argininal [Compound 152A]”, the IC50 in assay [2], in assay [1] and in assay [3] was more than 2.5 µM throughout.

As to “[5-(1,4-benzodioxan)sulfonylamino-6-methyl-2-oxo-1,2-dihydro-pyridyl]acetyl-L-argininal [Compound 153B]”, the IC50 in assay [2], in assay [1] and in assay [3] was more than 2.5 µM each time.

Regarding “[5-(2,3-dihydrobenzofuran)sulfonylamino-6-methyl-2-oxo-1,2-dihydro-pyridyl]acetyl-L-argininal [Compound 153C]”, the IC50 in assay [1] is more than 2.5 µM.

“[5-(1,3-benzodioxole)sulfonylalmino-6-methyl-2-oxo-1,2-dihydro-pyridyl]acetyl-L-argininal [Compound 153D]”: the IC50 in assay [2], in assay [1] and in assay [3] was more than 2.5 µM in each case.

Take “[5-(2,3-dioxaspirocyclohexyl)-sulfonylamino-2-oxo-1,2-dihydropyridyl]acetyl-L-argininal [Compound 152C]”: in assay [1], the IC50 was more than 2.5 µM.

One may read the IC50 as the point on the concentration scale where inhibition reaches its midpoint.
